In PubChem BioAssay (NCATS):
“And” between values parts separate entries of the source, which are not always exact repeats. Equal values may be shown once. The entries are a selection whose mix differs from that of the whole data set. Results filed as inconclusive are left out. The source made the active and inactive calls. Unless noted, calls follow the shape of the dose curve; as a rule, active = well fitted cell-killing curve with a large enough effect; inconclusive = small, poorly fitted or top-dose-only effect; inactive = flat fitted curve, though single readings scatter.

Key:
[1] = Cell Viability - LYMP2-006 (AID 978); conditions: LYMP2-006 lymphoblastoid cell viability, qHTS; at 92.2 µM (top of the series); also: % is scaled to controls: 0 for no effect and ±100 for the full control effect; nearly all actives have a fitted effect of over 60% in size
In short: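 In this cytotoxicity screen, the human lymphoblastoid line grew in complete medium with test compounds for 24 hr at 37 C. Cellular ATP served as the viability signal.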

[2] = Cell Viability - LYMP2-007 (AID 979); conditions: LYMP2-007 lymphoblastoid cell viability; at 92.2 µM (top of the series);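 also: cells exposed to compound for 24 h before reading; 0% = DMSO only and the negative end = 92 µM tetraoctylammonium bromide; nearly all actives have a fitted effect of over 60% in size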
In short: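 Measured via luciferase-based ATP quantitation: lymphoblastoid cells, 24 hr compound exposure at 37 C, AC50 from Hill fits.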

[3] = Cell Viability - LYMP2-008 (AID 980); conditions: LYMP2-008 lymphoblastoid cell viability, qHTS; at 92.2 µM (top of the series);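 also: cells exposed to compound for 24 h at 37 °C; % is scaled to controls: 0 for no effect and ±100 for the full control effect; nearly all actives have a fitted effect of over 60% in size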
In short: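 Measured: ATP-dependent luminescence, proportional to viable cell number, in human lymphoblastoid cells treated 24 hr with compound in complete culture medium. Values are AC50s from Hill-equation modelling of qHTS titrations.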

[4] = Cell Viability - LYMP2-010 (AID 981); conditions: LYMP2-010 lymphoblastoid cell viability, qHTS; at 92.2 µM (top of the series); also: % is scaled to controls: 0 for no effect and ±100 for the full control effect; nearly all actives have a fitted effect of over 55% in size
In short: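 This 24 hr viability screen uses LYMP2-010 lymphoblastoid cells, quantifies ATP via luciferase luminescence, and derives AC50 from Hill fits of qHTS concentration-response data.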

[5] = Cell Viability - LYMP2-012 (AID 982); conditions: LYMP2-012 lymphoblastoid cell viability qHTS; at 92.2 µM (top of the series);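 also: cellular ATP by luciferase luminescence where a drop means cytotoxicity; cells exposed to compound for one day before reading; 0% = DMSO only and full loss = 92 µM tetraoctylammonium bromide; nearly all actives have a fitted effect of over 55% in size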
[6] = Cell Viability - LYMP2-014 (AID 983); conditions: LYMP2-014 lymphoblastoid cells, viability qHTS; at 92.2 µM (top of the series);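 also: cells exposed to compound for 24 h at 37 °C; plate controls were DMSO only for no effect and 92 µM tetraoctylammonium bromide for full effect; nearly all actives have a fitted effect of over 50% in size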
In short: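 Quantitative HTS in lymphoblastoid cells: 24 hr compound exposure, then CellTiter-Glo ATP luminescence. Positive control was tetraoctylammonium bromide, 6.4pM to 92 uM.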

[7] = Cell Viability - LYMP2-016 (AID 984); conditions: LYMP2-016 lymphoblastoid cell viability, qHTS; at 92.2 µM (top of the series); also: % is scaled to controls: 0 for no effect and ±100 for the full control effect; nearly all actives have a fitted effect of over 55% in size
In short: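 Concentration-dependent ATP depletion measured in LYMP2-016 lymphoblastoid cells, 24 h, 37 C; luciferase-based luminescent detection; Hill-equation AC50.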

[8] = Cell Viability - LYMP2-018 (AID 985); conditions: LYMP2-018 lymphoblastoid cells, viability (qHTS); at 92.2 µM (top of the series);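 also: plate controls were DMSO only for no effect and tetraoctylammonium bromide at 92 µM for full effect; nearly all actives have a fitted effect of over 50% in size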
In short: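 In this qHTS viability assay, cells are treated for 24 hr and cellular ATP is quantified by luciferase-based luminescence, with tetraoctylammonium bromide as positive control.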

[9] = Cell Viability - LYMP2-020 (AID 986); conditions: LYMP2-020 lymphoma cell viability, qHTS; at 92.2 µM (top of the series);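 also: cells exposed to compound for 24 h at 37 °C; plate controls were DMSO only for no effect and tetraoctylammonium bromide at 92 µM for full effect; nearly all actives have a fitted effect of over 55% in size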
In short: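 Cells at 2500 per well receive a 24 hr compound exposure at 37 C. Viability is measured as ATP-dependent luciferase luminescence, with AC50 modeled from qHTS concentration-response curves.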

[10] = Cell Viability - LYMP2-022 (AID 987); conditions: LYMP2-022 lymphoblastoid cell viability; at 92.2 µM (top of the series)
In short: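 In this qHTS cytotoxicity screen, compound titrations were incubated 24 hr at 37 C with human lymphoblastoid cells in complete medium. Luciferase-based ATP luminescence provided the viability signal.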

[11] = Cell Viability - LYMP2-024 (AID 988); conditions: LYMP2-024 lymphoblastoid cell viability; at 92.2 µM (top of the series);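 also: plate controls were DMSO only for no effect and 92 µM tetraoctylammonium bromide for full effect; nearly all actives have a fitted effect of over 60% in size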
In short: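 Cells at 2500 per well received compound for 24 hr after a 5 hr settling period. Viability was scored by CellTiter-Glo luminescence, with AC50 from Hill fits.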

[12] = Cell Viability - LYMP2-026 (AID 989); conditions: LYMP2-026 lymphoblastoid cell viability, qHTS; at 92.2 µM (top of the series);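 also: cells exposed to compound for 24 h at 37 °C; % is scaled to controls: 0 for no effect and ±100 for the full control effect; nearly all actives have a fitted effect of over 50% in size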
In short: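 Acute toxicity screen in complete culture medium, with 24 hr compound exposure at 37 C. Viability read as cellular ATP via luciferase reaction, with tetraoctylammonium bromide (6.4pM to 92 uM) as positive control.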

[13] = Cell Viability - LYMP1-002 - Assay at 24 hr (AID 993); conditions: LYMP1-002 lymphoblastoid cells viability; at 92.2 µM (top of the series); also: % is scaled to controls: 0 for no effect and ±100 for the full control effect
In short: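 Viability was judged from intracellular ATP using a luciferase read-out, following a 24-hour compound incubation at 37 C of lymphoblastoid cells seeded at 2500 per well. Concentration-response data were fitted to the Hill equation for AC50.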

[14] = Cell Viability - LYMP1-002 - Assay at 40 hr (AID 994); conditions: LYMP1-002 lymphoblastoid cell viability; at 92.2 µM (top of the series)
In short: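 Concentration-dependent ATP loss after 40 hr treatment at 37 C defined toxicity; AC50 values were obtained by fitting the standard Hill equation.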

[15] = qHTS Assay for Identification of Small Molecule Inducers of Hypoxia Response (AID 2120; active = well fitted curve in the direction sought with a large enough effect in the signal ratio, with a control signal flat, not every such curve was filed as active; the % refers to the signal ratio; also: 0% is about no effect); conditions: hypoxia response reporter cells, beta-lactamase ratio readout; at 104 µM (top of the series)
In short: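 HRE-bla ME-180, 2500 cells/well, 0.5% dialyzed FBS medium; cpd titration, 17 h 37 degrees C; CCF4 2.5 h RT; Ex 405, Em 460/530 ratio -> %Activity, AC50.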

[16] = molecular target: Estrogen receptor (Homo sapiens) (UniProt P03372); assay: qHTS assay for small molecule antagonists of estrogen receptor alpha signaling (AID 588513; active = well fitted curve in the direction sought with a large enough effect in the signal ratio, with a control signal flat, not every such curve was filed as active; the % refers to the signal ratio; also: % is scaled to controls: 0 for no effect and ±100 for the full control effect); conditions: ER-alpha-UAS-bla HEK293, beta-lactamase ratio, antagonist mode; at 76.9 µM (top of the series)
[17] = molecular target: Estrogen receptor (Homo sapiens) (UniProt P03372); assay: qHTS assay for small molecule agonists of estrogen receptor alpha signaling (AID 588514; calls by dose curve;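 also: 0% = vehicle only and 100% = reference agonist; nearly all actives have a fitted effect of over 70% in size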); conditions: ER-alpha-UAS-bla HEK293, beta-lactamase ratio, 18 h, percent of full estradiol response, vehicle zero; at 76.8 µM (top of the series)
[18] = molecular target: Glucocorticoid receptor (Homo sapiens) (UniProt P04150); assay: qHTS assay for small molecule agonists of glucocorticoid receptor signaling (AID 588532; active = well fitted curve in the direction sought with a large enough effect in the signal ratio, with a control signal flat; the % refers to the signal ratio;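 also: 100% = dexamethasone at 0.1 µM and 0% = DMSO only wells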); conditions: HeLa MMTV-bla, beta-lactamase ratio, agonist, 18 h; hits give high values
[19] = molecular target: Bile acid receptor (Homo sapiens) (UniProt Q96RI1); assay: qHTS assay for small molecule antagonists of farnesoid X receptor signaling (AID 588526; calls by dose curve; also: % is scaled to controls: 0 for no effect and ±100 for the full control effect); conditions: HEK293T FXR-UAS-bla, beta-lactamase ratio, antagonist mode; at 76.7 µM (top of the series)
[20] = molecular target: Bile acid receptor (Homo sapiens) (UniProt Q96RI1); assay: qHTS assay for small molecule agonists of farnesoid X receptor signaling (AID 588527; calls by dose curve;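 also: 0% = vehicle basal and 100% = reference agonist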); conditions: HEK293T FXR-UAS-bla, beta-lactamase ratio, 16 h; hits give high values

ClCCOP(OCCCl)OCCCl
inactive: activity change, negative = cytotoxicity [1] 1.78% | activity change, negative = cytotoxicity [2] -9.43% | activity change, negative = cytotoxicity [3] -7.04% | activity, negative = cytotoxicity [4] -16% | activity change, negative = cytotoxicity [5] -19.1% | activity change, negative = cytotoxicity [6] -2.48% | activity change, negative = cytotoxicity [7] -4.48% | activity change, negative = cytotoxicity [8] -0.286% | activity change, negative = viability loss [9] -3.47% | viability change, negative = cytotoxic [10] -13.9% | activity change, negative = cytotoxicity [11] -8.84% | activity change, negative = cytotoxic [12] 0.744% | activity change, negative = cytotoxicity [13] 1.61% | viability change, negative = cytotoxic [14] -0.262% | activation [15] 0.609% | activity, negative = inhibition [16] 21.1% | activation [17] -3.8% | activation [18] -3.43%

CCOP(=O)(Cl)Cl
inactive: activity change, negative = cytotoxicity [1] -3.2% | activity change, negative = cytotoxicity [2] -0.39% | activity change, negative = cytotoxicity [3] -11.8% | activity, negative = cytotoxicity [4] -20.6% | activity change, negative = cytotoxicity [5] -22% | activity change, negative = cytotoxicity [6] -7.25% | activity change, negative = cytotoxicity [7] -1.47% | activity change, negative = cytotoxicity [8] -8.97% | activity change, negative = viability loss [9] 3.54% | viability change, negative = cytotoxic [10] -0.109% | activity change, negative = cytotoxicity [11] -6.09% | activity change, negative = cytotoxic [12] -7.39% | activity change, negative = cytotoxicity [13] 0.692% | viability change, negative = cytotoxic [14] -1.39% | activation [15] 1.11% | activity change, negative = inhibition [19] 2.61% and -3.63% | activation [20] 0.86% and -2.54%
